Amino acid sequences for entries named in this document (tags omitted). Residues count along the entry.
UniProt Q9Y233, 267-1055: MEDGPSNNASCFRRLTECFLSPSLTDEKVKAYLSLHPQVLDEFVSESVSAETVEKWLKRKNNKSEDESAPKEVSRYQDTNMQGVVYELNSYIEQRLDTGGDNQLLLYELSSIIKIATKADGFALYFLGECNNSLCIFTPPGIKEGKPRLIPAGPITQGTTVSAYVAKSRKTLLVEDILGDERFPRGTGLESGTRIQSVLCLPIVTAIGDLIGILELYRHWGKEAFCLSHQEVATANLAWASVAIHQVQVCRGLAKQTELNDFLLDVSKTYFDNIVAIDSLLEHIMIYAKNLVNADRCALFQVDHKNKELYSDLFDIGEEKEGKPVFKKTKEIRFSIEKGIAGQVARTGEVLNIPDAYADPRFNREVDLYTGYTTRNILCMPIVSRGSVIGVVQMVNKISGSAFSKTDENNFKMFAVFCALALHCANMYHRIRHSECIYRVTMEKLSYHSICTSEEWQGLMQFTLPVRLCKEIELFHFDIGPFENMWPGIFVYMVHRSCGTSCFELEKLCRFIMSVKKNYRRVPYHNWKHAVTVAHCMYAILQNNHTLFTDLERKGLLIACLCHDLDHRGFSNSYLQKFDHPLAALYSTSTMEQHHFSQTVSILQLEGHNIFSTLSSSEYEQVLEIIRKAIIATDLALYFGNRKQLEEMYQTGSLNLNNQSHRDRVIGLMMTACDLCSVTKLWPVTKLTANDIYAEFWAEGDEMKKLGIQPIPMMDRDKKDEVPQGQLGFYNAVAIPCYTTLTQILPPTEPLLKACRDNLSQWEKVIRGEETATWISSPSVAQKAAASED

In the assay the target is human PDE10A2 (Homo sapiens (Human), UniProt Q9Y233). The experiment in a line: PDE10 fluorescence polarization (IMAP FP) inhibition assay. It is filed as biochemical. The following applies: human PDE10A2 from transfected AD293 cells; FAM-labeled cAMP 50 nM; apparent inhibition constant; read-out: PDE10A Ki. On the procedure: The activity of the compounds in accordance with the present invention as PDE10 inhibitors may be readily determined without undue experimentation using a fluorescence polarization (FP) methodology that is well known in the art (Huang, W., et al., J. Biomol Screen, 2002, 7: 215).
In a typical experiment the PDE10 inhibitory activity of the compounds of the present invention was determined in accordance with the following experimental method. PDE10A2 was amplified from human fetal brain cDNA (Clontech, Mountain View, Calif.) using a forward primer corresponding to nucleotides 56-77 of human PDE10A2 (Accession No. AF127480, Genbank Identifier 4894716), containing a Kozak consensus sequence, and a reverse primer corresponding to nucleotides 2406-2413 of human PDE10A2 (Accession No. AF127480, Genbank Identifier 4894716). Amplification with Easy-A polymerase (Stratagene, La Jolla, Calif.) was 95° C. for 2 minutes followed by thirty three cycles of 95° C. for 40 seconds, 55° C. for 30 seconds, and 72° C. for 2 minutes 48 seconds. Final extension was 72° C. for 7 minutes. The PCR product was TA cloned into pcDNA3.2-TOPO (Invitrogen, Carlsbad, Calif.) according to standard protocol. AD293 cells with 70-80% confluency were transiently transfected with human PDE10A2/pcDNA3.2-TOPO using Lipofectamine 2000 according to manufacturer specifications (Invitrogen, Carlsbad, Calif.). Cells were harvested 48 hours post-transfection and lysed by sonication (setting 3, 10×5 sec pulses) in a buffer containing 20 mM HEPES, 1 mM EDTA and protease inhibitor cocktail (Roche). Lysate was collected by centrifugation at 75,000×g for 20 minutes. Supernatant containing the cytoplasmic fraction was used for evaluation of PDE10A2 activity. The fluorescence polarization assay for cyclic nucleotide phosphodiesterases was performed using an IMAP® FP kit supplied by Molecular Devices, Sunnyvale, Calif. (product # R8139). IMAP® technology has been applied previously to phosphodiesterase assays (Huang, W., et al., J. Biomol Screen, 2002, 7: 215). Assays were performed at room temperature in 384-well microtiter plates with an incubation volume of 20.2 μL. Solutions of test compounds were prepared in DMSO and serially diluted with DMSO to yield 8 μL of each of 10 solutions differing by 3-fold in concentration, at 32 serial dilutions per plate. 100% inhibition is determined using a known PDE10 inhibitor, which can be any compound that is present at 5,000 times its Ki value in the assay described as follows, such as papaverine (see Siuciak, et al. Neuropharmacology (2006) 51:386-396; Becker, et al. Behav Brain Res (2008) 186(2):155-60; Threlfell, et al., J Pharmacol Exp Ther (2009) 328(3):785-795), 2-{4-[pyridin-4-yl-1-(2,2,2-trifluoroethyl)-1H-pyrazol-3-yl]phenoxymethyl}quinoline succinic acid or 2-[4-(1-methyl-4-pyridin-4-yl-1H-pyrazol-3-yl)-phenoxymethyl]quinoline succinic acid (see Schmidt, et al. J Pharmacol Exp Ther (2008) 325:681-690; Threlfell, et al., J Pharmacol Exp Ther (2009) 328(3): 785-795). 0% of inhibition is determined by using DMSO (1% final concentrations).
A Labcyte Echo 555 (Labcyte, Sunnyvale, Calif.) is used to dispense 200 nL from each well of the titration plate to the 384 well assay plate. A solution of enzyme (1/1600 dilution from aliquots; sufficient to produce 20% substrate conversion) and a separate solution of FAM-labeled cAMP PDE from Molecular Devices (product # R7506), at a final concentration of 50 nM are made in the assay buffer (10 mM Tris HCl, pH 7.2, 10 mM MgCl2, 0.05% NaN3 0.01% Tween-20, and 1 mM DTT). The enzyme and the substrate are then added to the assay plates in two consecutive additions of 10 μL, and then shaken to mix. The reaction is allowed to proceed at room temperature for 30 minutes. A binding solution is then made from the kit components, comprised of 80% Solution A, 20% Solution B and binding reagent at a volume of 1/600 the total binding solution.
As to `Cc1ncc(-c2ccc(C(=O)O)cc2)c(OC[C@H]2C[C@@H]2c2ccc3ccccc3n2)n1` (single isomer, unassigned) [Example 22], the Ki was found to be 0.01 nM. With `Cc1ncc(-c2ccc(C(=O)O)cc2)c(OC[C@H]2C[C@@H]2c2ccc3ccccc3n2)n1` (single isomer, unassigned) [Example 23], the Ki was found to be 1.21 nM.

With `Cc1ccc(-c2cnc(C)nc2OC[C@H]2C[C@@H]2c2ccc3ccccc3n2)cc1` (single isomer, unassigned) [Example 24], the Ki came out at 0.35 nM. As to `Cc1ccc(-c2cnc(C)nc2OC[C@H]2C[C@@H]2c2ccc3ccccc3n2)cc1` (single isomer, unassigned) [Example 25], the Ki worked out at 7.23 nM.

As for `Cc1ncc(-c2ccc(C#N)cc2)c(OC[C@H]2C[C@@H]2c2ccc3ccccc3n2)n1` (single isomer, unassigned) [Example 32], the Ki was found to be 0.06 nM. As to `Cc1ncc(-c2ccc(C#N)cc2)c(OC[C@H]2C[C@@H]2c2ccc3ccccc3n2)n1` (single isomer, unassigned) [Example 33], the Ki turned out to be 1.25 nM. As for `Cc1cccc(-c2cnc(C)nc2OC[C@H]2C[C@@H]2c2ccc3ccccc3n2)c1` (single isomer, unassigned) [Example 36], the figure is 0.09 nM. Turning to `Cc1cccc(-c2cnc(C)nc2OC[C@H]2C[C@@H]2c2ccc3ccccc3n2)c1` (single isomer, unassigned) [Example 37], the Ki is 7.24 nM.

As for `Cc1ncc(-c2cncnc2)c(OC[C@H]2C[C@@H]2c2ccc3ccccc3n2)n1` (single isomer, unassigned) [Example 43], the Ki worked out at 0.08 nM.

Regarding `Cc1ncc(-c2cncnc2)c(OC[C@H]2C[C@@H]2c2ccc3ccccc3n2)n1` (single isomer, unassigned) [Example 44], the Ki was 2.2 nM. In the case of `COc1ccc([C@H]2C[C@@H]2COc2nc(C)ncc2-c2ccc(C(O)C(F)F)nc2)nc1` (single isomer, unassigned) [Example 67], the Ki was determined as 0.1 nM.

With `COc1ccc([C@H]2C[C@@H]2COc2nc(C)ncc2-c2ccc(C(O)C(F)F)nc2)nc1` (single isomer, unassigned) [Example 68], the Ki turned out to be 0.43 nM.

Turning to `COc1ccc([C@H]2C[C@@H]2COc2nc(C)ncc2-c2ccc(C(O)C(F)(F)F)nc2)nc1` (single isomer, unassigned) [Example 83], the Ki amounted to 0.15 nM. Under `COc1ccc([C@H]2C[C@@H]2COc2nc(C)ncc2-c2ccc(C(O)C(F)(F)F)nc2)nc1` (single isomer, unassigned) [Example 84] stands 0.51 nM; under `Cc1ncc(-c2cn(C)nc2C(C)O)c(OC[C@@H]2C[C@H]2c2ccc3c(n2)CCC3)n1` (single isomer, unassigned) [Example 164], 0.04 nM; under `Cc1ncc(-c2cn(C)nc2C(C)O)c(OC[C@@H]2C[C@H]2c2ccc3c(n2)CCC3)n1` (single isomer, unassigned) [Example 165], 0.05 nM. `Cc1ncc(-c2cn(C)nc2C(C)O)c(OC[C@@H]2C[C@H]2c2ccc3c(n2)CCC3)n1` (single isomer, unassigned) [Example 166]: the Ki came out at 8.11 nM. As for `Cc1ncc(-c2cn(C)nc2C(C)O)c(OC[C@@H]2C[C@H]2c2ccc3c(n2)CCC3)n1` (single isomer, unassigned) [Example 167], the figure is 5.44 nM. As for `Cc1ncc(-c2cn(C)nc2C(C)O)c(OC[C@H]2C[C@@H]2c2ccccn2)n1` (single isomer, unassigned) [Example 168], the figure is 1.56 nM; as for `Cc1ncc(-c2cn(C)nc2C(C)O)c(OC[C@H]2C[C@@H]2c2ccccn2)n1` (single isomer, unassigned) [Example 169], 1.41 nM.

On to `COc1ccc([C@H]2C[C@@H]2COc2nc(C)ncc2[C@H]2CC[C@@H](C(N)=O)CC2)nc1` [Example 218, cis-4-(4-(((1S,2S)-2-(5-Methoxypyridin-2-yl)cyclopropyl)methoxy)-2-methylpyrimidin-5-yl)cyclohexanecarboxamide], for which the Ki was 0.5 nM. As for `COc1ccc([C@H]2C[C@@H]2COc2nc(C)ncc2[C@H]2CC[C@H](C(N)=O)CC2)nc1` [Example 219, trans-4-(4-(((1S,2S)-2-(5-Methoxypyridin-2-yl)cyclopropyl)methoxy)-2-methylpyrimidin-5-yl)cyclohexanecarboxamide], the figure is 0.65 nM; as for `COc1ccc([C@H]2C[C@@H]2COc2nc(C)ncc2[C@H]2CC[C@H](C(C)(C)O)CC2)nc1` [Example 220, (trans) 2-(4-(4-(((1S,2S)-2-(5-methoxypyridin-2-yl)cyclopropyl)methoxy)-2-methylpyrimidin-5-yl)cyclohexyl)propan-2-ol], 0.64 nM.

Source of the values: patent publication US9663513B2, “Pyrimidine PDE10 inhibitors” (Merck Sharp & Dohme Corp., priority 2012, dated 2017).
